# Reference: patent US8778985B2, “Inhibiting amyloid-beta peptide/rage interaction at the blood-brain barrier” (The University of Rochester, priority 2006, dated 2014)
# Sequences of proteins named here, by UniProt entry; tags and fusion partners are left off. Residues count along the entry.
# UniProt Q15109, 23-404: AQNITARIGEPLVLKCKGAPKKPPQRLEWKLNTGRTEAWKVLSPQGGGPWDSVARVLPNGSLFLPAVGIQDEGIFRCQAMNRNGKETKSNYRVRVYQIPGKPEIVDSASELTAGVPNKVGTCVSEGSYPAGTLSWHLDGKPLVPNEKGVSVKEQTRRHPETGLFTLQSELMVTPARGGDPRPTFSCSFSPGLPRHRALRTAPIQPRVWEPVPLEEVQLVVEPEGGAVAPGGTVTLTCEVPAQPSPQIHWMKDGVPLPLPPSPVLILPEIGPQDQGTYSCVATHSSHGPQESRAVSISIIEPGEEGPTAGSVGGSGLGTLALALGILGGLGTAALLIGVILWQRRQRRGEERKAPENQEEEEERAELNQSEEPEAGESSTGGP
# Molecular target: T1, RAGE (Homo sapiens, UniProt Q15109)
# T1 construct: expressed in transfected cells; host or cells: Chinese hamster ovary (CHO) cells
# Experiment: 125I-Aβ40 specific binding on RAGE-transfected CHO cells at 4° C., competitive inhibition
# Conditions: read-out: Kd (binding constant) of 125I-Aβ40 binding to RAGE, as reported in Mackic et al., 1998
# Excerpt: Data are mean±s.e.m., n=3 per group.
# All three are tertiary amides substituted with a large, hydrophobic hydrocarbon moiety and a monosubstituted aromatic moiety. Linkage to the monosubstituted aromatic is either direct (FPS2) or via an alkyl (FPS1) or heteroaromatic (FPS3) spacer. Two of the compounds also feature a highly electron-poor substituted benzene ring (3-nitro, 4-chloro for FPS1; 3,5-dinitro for FPS2).
smiles,measurement,value
"CC[C@H](C)[C@H](NC(=O)[C@H](C)NC(=O)CNC(=O)[C@H](CCCCN)NC(=O)[C@H](CC(N)=O)NC(=O)[C@H](CO)NC(=O)CNC(=O)[C@@H](NC(=O)[C@H](CC(=O)O)NC(=O)[C@H](CCC(=O)O)NC(=O)[C@H](C)NC(=O)[C@H](Cc1ccccc1)NC(=O)[C@H](Cc1ccccc1)NC(=O)[C@@H](NC(=O)[C@H](CC(C)C)NC(=O)[C@H](CCCCN)NC(=O)[C@H](CCC(N)=O)NC(=O)[C@H](Cc1cnc[nH]1)NC(=O)[C@H](Cc1cnc[nH]1)NC(=O)[C@@H](NC(=O)[C@H](CCC(=O)O)NC(=O)[C@H](Cc1ccc(O)cc1)NC(=O)CNC(=O)[C@H](CO)NC(=O)[C@H](CC(=O)O)NC(=O)[C@H](Cc1cnc[nH]1)NC(=O)[C@H](CCCNC(=N)N)NC(=O)[C@H](Cc1ccccc1)NC(=O)[C@H](CCC(=O)O)NC(=O)[C@H](C)NC(=O)[C@@H](N)CC(=O)O)C(C)C)C(C)C)C(C)C)C(=O)N[C@H](C(=O)NCC(=O)N[C@@H](CC(C)C)C(=O)N[C@@H](CCSC)C(=O)N[C@H](C(=O)NCC(=O)NCC(=O)N[C@H](C(=O)N[C@H](C(=O)O)C(C)C)C(C)C)C(C)C)[C@@H](C)CC [125I-Aβ40, reference compound]",Kd,75 ± 8 nM
